The record followed here is US20230192679A1, “CRYSTALLINE FORMS, PHARMACEUTICAL COMPOSITIONS AND METHODS OF USE THEREOF” (Tango Therapeutics, Inc., priority 2021, published 2023).

In data set [1] the test system is orthotopic U87MG MTAP-null GBM CDX. As to conditions: 120 mpk BID; monitored maximum of 110 days.
The nature of data set [2]: Brain penetration: CSF and plasma after oral administration. Particulars: non-human primates, oral 10 mg/kg.
Data set [3] relates to MTAP-deleted CDX and PDX models. As to conditions: 120 mpk BID.

For `Cc1cc(NC(=O)C(=O)N2C[C@@H](C)CC[C@@H]2c2ccc3scnc3c2)cnc1N` [PRMT5 inhibitor of formula (I), N-(6-amino-5-methylpyridin-3-yl)-2-((2R,5S)-2-(benzo[d]thiazol-5-yl)-5-methylpiperidin-1-yl)-2-oxoacetamide], the “median survival benefit relative to vehicle” value in data set [1] was 53 days. Moreover, in data set [2], the brain penetration result is “brain-penetrant”. Besides, in data set [3], the “antitumor response (% growth relative to vehicle)” value is on record as “strong, lineage agnostic antitumor response”.
